Reference: publication PMC8753982 (ACS chemical neuroscience, 2019)

Protein sequences, listed by entry. Tags and fused reporters are not part of them. Residues count along the entry.
UniProt P31424, 21-1203: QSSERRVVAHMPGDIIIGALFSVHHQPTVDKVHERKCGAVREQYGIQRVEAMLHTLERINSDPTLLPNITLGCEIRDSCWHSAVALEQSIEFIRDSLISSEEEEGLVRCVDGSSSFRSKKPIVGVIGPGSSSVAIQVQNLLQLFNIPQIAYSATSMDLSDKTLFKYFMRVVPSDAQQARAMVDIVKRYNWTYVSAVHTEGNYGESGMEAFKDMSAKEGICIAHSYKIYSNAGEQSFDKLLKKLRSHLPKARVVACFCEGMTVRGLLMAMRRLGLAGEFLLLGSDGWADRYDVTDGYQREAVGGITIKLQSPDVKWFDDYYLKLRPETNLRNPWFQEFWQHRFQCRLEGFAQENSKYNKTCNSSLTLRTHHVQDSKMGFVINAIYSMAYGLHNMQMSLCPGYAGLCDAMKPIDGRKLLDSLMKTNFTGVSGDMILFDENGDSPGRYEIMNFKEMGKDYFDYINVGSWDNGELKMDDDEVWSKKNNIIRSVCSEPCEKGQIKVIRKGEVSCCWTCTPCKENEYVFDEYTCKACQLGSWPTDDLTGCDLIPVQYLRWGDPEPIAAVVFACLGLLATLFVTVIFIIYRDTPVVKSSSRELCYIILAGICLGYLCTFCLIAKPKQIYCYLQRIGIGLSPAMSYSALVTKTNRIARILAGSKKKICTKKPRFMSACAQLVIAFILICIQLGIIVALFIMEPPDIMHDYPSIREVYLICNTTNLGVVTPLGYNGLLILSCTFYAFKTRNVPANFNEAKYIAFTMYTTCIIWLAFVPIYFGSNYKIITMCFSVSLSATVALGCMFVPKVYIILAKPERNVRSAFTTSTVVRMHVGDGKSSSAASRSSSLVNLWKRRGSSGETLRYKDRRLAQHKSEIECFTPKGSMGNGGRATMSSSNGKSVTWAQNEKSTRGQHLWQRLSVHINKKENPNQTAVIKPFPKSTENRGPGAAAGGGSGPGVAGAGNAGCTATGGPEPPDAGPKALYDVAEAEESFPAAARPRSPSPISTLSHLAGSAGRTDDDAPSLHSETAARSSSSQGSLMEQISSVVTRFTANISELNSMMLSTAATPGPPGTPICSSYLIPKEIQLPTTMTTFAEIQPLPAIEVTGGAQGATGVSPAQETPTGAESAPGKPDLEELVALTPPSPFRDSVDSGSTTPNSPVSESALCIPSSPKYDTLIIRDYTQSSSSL

Columns and labels:
Experiment in all cases: Fluorescence-based Ca2+ flux assay with a microplate reader
Format in all cases: cell-based
[1] = molecular target: endogenous mGlu5 in cortical neurons (Rattus norvegicus, UniProt P31424)
[2] = molecular target: endogenous mGlu5 in striatal neurons (Rattus norvegicus, UniProt P31424)
[3] = molecular target: endogenous mGlu5 in hippocampal neurons (Rattus norvegicus, UniProt P31424)

- IC50 [1]: 119 ± 34.1 nM
- IC50 [2]: 1130 ± 360 nM
- IC50 [3]: 41.7 ± 4.7 nM
SMILES: Cc1cccc(C#Cc2ccccc2)n1 [MPEP, 2-methyl-6-(phenylethynyl)pyridine]
